{"source": "patent US20170000889A1", "about": "“STABLE BROMFENAC OPHTHALMIC SOLUTION” (SENTISS PHARMA PRIVATE LIMITED, priority 2013, published 2017)", "assay": "Haziness of citrate-buffered bromfenac formulation on addition of BKC, effect of surfactants", "type": "physicochemical", "conditions": "surfactant added to citrate-buffered bromfenac solution with benzalkonium chloride", "method": "In yet other embodiment of the present invention, citrate buffer is used instead of borate buffer but when benzalkonium chloride (BKC) was added in the citrate formulation it causes haziness of the formulation.\nThe inventors of the present invention extensively studied how to overcome the haziness occurred during the addition of BKC."}
{"substance": "Vitamin E Polyethylene Glycol Succinate [Kolliphor® TPGS]", "values": [{"measurement": "Haziness after addition of BKC to the citrate formulation", "value": "removed haziness"}]}
